Values of other authors in patent publication US20240173315A1 (OWP Pharmaceuticals, Inc., priority 2022, published 2024).

Conditions: humans, oral, taken shortly after ingestion of food

SMILES: O=c1n(CCCN2CCN(c3cccc(Cl)c3)CC2)nc2ccccn12 [trazodone hydrochloride]
- effect of food on maximum concentration: decrease
- effect of food on time to maximum concentration: lengthening

Structures can show the parent of a compound that is named as a salt.
